Measured affinities in a library of Ab-14 light chain variants

Reference: Engelhart et al. 2022, doi:10.1038/s41597-022-01779-4. File: FLAb, binding data.

Antigen: PDVDLGDISGINAS, a 14-residue peptide of the SARS-CoV-2 spike HR2 region.

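The parent was found by panning a naive human phage display library on the peptide. In library AAYL50, one, two or three CDR residues were substituted; doubles and triples were drawn at random. The assay is AlphaSeq: two haploid yeast populations carry antibody and antigen on their surface. Mating (16 h, 30 °C) was followed by selection of diploids and sequencing of their barcodes. Each replicate has its own calibration line, from reference interactions of the BCL2 family. The assay was run in three technical replicates.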

Each scFv is VH, the linker GGGGSGGGGSGGGGS, VL, as in the parent Ab-14, and differs from it in the CDRs of the light chain only.
VH: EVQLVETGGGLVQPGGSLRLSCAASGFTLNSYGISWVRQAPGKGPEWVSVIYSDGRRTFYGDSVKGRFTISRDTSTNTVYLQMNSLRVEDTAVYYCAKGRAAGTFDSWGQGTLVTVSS
VL: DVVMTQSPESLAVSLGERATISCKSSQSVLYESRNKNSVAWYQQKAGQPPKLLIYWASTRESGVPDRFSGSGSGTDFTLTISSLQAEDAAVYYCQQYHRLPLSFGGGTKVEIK

Substitutions are numbered in sequence along the VL above, starting at 1 (not Kabat). Every variant below is changed at Y97 of the VL (sequential numbering). Kd is apparent (estimated from mating counts) and averaged on the log scale over replicates with a signal. Smaller is tighter. "nd" means that the variant was in the library but no mating with the target was seen in any replicate; the authors take this as a sign of poor binding, and no number exists.

The variant S28F T59N Y97E gave nd (0 of 3 replicates; controls 0 of 9).
The variant K24H N37Q Y97M gave 57 nM (3 of 3 replicates; controls 1 of 9).
The variant Y31A N37I Y97D gave 62 nM (3 of 3 replicates; controls 4 of 9).
The variant S33V N37R Y97A gave 29 µM (1 of 3 replicates; controls 0 of 9).
The variant S58R Y97G gave 190 nM (3 of 3 replicates; controls 3 of 9).
The variant L30M E61D Y97S gave 32 µM (3 of 3 replicates; controls 5 of 9).
The variant E32M Y97D L102Y gave 52 nM (3 of 3 replicates; controls 0 of 9).
The variant S26Q K36M Y97M gave nd (0 of 3 replicates; controls 0 of 9).
The variant R34Y Y97T L100K gave 5.2 nM (3 of 3 replicates; controls 4 of 9).
The variant A40R Y97W gave nd (0 of 3 replicates; controls 0 of 9).
The variant S26V L30N Y97A gave 680 nM (3 of 3 replicates; controls 1 of 9).
The variant S33I Y97F gave nd (0 of 3 replicates; controls 0 of 9).
The variant V29H N35H Y97D gave nd (0 of 3 replicates; controls 0 of 9).
The variant R34M S62A Y97K gave 1.7 µM (1 of 3 replicates; controls 1 of 9).
The variant S26A Q96W Y97V gave nd (0 of 3 replicates; controls 0 of 9).
The variant Q96L Y97R S103V gave nd (0 of 3 replicates; controls 0 of 9).
The variant S33W S38N Y97A gave 31 nM (3 of 3 replicates; controls 4 of 9).
The variant K24M V29N Y97L gave 1.4 µM (3 of 3 replicates; controls 0 of 9).
The variant S33G R60F Y97E gave nd (0 of 3 replicates; controls 3 of 9).
The variant K24T S62T Y97C gave 45 nM (3 of 3 replicates; controls 2 of 9).
The variant S26I R34H Y97T gave nd (0 of 3 replicates; controls 1 of 9).
The variant N35H S62C Y97V gave 880 µM (1 of 3 replicates; controls 3 of 9).
The variant R34Q W56E Y97R gave 55 µM (1 of 3 replicates; controls 3 of 9).
The variant Q27Y Y97M H98D gave nd (0 of 3 replicates; controls 0 of 9).
The variant S25C S38A Y97S gave 3.6 nM (3 of 3 replicates; controls 2 of 9).
The variant Y31L N35M Y97T gave 11 µM (2 of 3 replicates; controls 5 of 9).
The variant S28E V39W Y97F gave 8.7 µM (2 of 3 replicates; controls 0 of 9).
The variant L30P Y31L Y97H gave 3.5 µM (1 of 3 replicates; controls 0 of 9).
The variant S58W Q96C Y97M gave 190 µM (1 of 3 replicates; controls 3 of 9).
The variant Q27P A57N Y97N gave 5.2 µM (2 of 3 replicates; controls 1 of 9).
The variant L30T S33M Y97H gave 820 nM (3 of 3 replicates; controls 0 of 9).
The variant K24L W56P Y97I gave nd (0 of 3 replicates; controls 6 of 9).
The variant K24F Y97D S103Y gave 340 nM (1 of 3 replicates; controls 0 of 9).
The variant Y31D W56G Y97H gave 2.0 nM (3 of 3 replicates; controls 4 of 9).
The variant Y97R gave nd (0 of 3 replicates; controls 0 of 9).
The variant S28F R34V Y97N gave 5.8 µM (2 of 3 replicates; controls 3 of 9).
The variant Y97W H98P gave 10 nM (3 of 3 replicates; controls 5 of 9).

The opening 3 entries, copied out:

changes	apparent Kd	replicates with signal	signal with controls
S28F T59N Y97E	nd	0/3	0/9
K24H N37Q Y97M	57 nM	3/3	1/9
Y31A N37I Y97D	62 nM	3/3	4/9

Background: pairings of library AAYL50 with three empty control strains gave a value in 18% of cases (median 15 µM, 5th percentile 970 nM). Values in that range, when seen in few replicates, are hard to tell from nonspecific mating. The control count says in how many pairings with the empty strains this scFv gave a signal.